Screens (PubChem)
Sampled rows, rich in hits. Any-hit rate of the full collection: about 3.6%.
VDR inhibitor = Inhibitors of the vitamin D receptor (VDR): qHTS; Vitamin D3 receptor (Homo sapiens), P11473; VDR-SRC2-3 peptide fluorescence polarization, 2 h; Potency, µM, for the others: max response, negative = inhibition, actives largely listed as inhibitors; 0.93% of 400,000 active; AID 504847, 2011; note: potency is the fitted concentration of half-maximal effect; % is set by controls: 0 for no effect and ±100 for the full control effect
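Inhibition of the VDR/SRC2-3 peptide interaction is quantified by fluorescence polarization. Compounds (23 nl, pintool) incubate with the reagents for 2 hours at ambient room temperature.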
PI5P4Ka inh = qHTS for Inhibitors of phosphatidylinositol 5-phosphate 4-kinase (PI5P4K) | PI5P4Kalpha enzyme, ADP-Glo luminescence, 60 min; active compounds read low | max response, % | 1.2% of 330,000 active | AID 652105, 2013; active = max response of -50% or lower; inconclusive = between -30% and -50%; inactive = -30% or higher; note: value at the top dose of about 77 µM; % is set by controls: 0 for no effect and ±100 for the full control effect
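Reactions run in 0.038 M HEPES pH 7.4, 0.28 mM EGTA, 0.1% CHAPS and 5% DMSO, with PI5P4Kalpha, substrate, compound and 5 microM ATP final, one hour at room temperature. Readout is ADP-Glo luminescence.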
Rango dissoc inh = qHTS Assay for Inhibitors of RanGTP induced Rango (Ran-regulated importin-beta cargo) - Importin beta complex dissociation | Snurportin-1 (Homo sapiens) + GTP-binding nuclear protein Ran (Homo sapiens) + Importin … | Biochemical FRET Rango-importin beta, RanGTP-induced dissociation | Potency, µM (series often up to 46.1 µM), for the others: at the highest dose activity change, negative = inhibition | 0.071% of 340,000 active | AID 540253, 2011; calls by dose curve; note: potency is the fitted concentration of half-maximal effect; % of control where 0% means no effect; nearly all actives have a fitted effect of over 45% in size
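Recombinant Rango FRET biosensor (EYFP–snurportin 1 IBB–cerulean CFP10) at 0.1 uM premixed with 0.25 uM importin beta in PBS, 1 mM DTT, 0.02% Tween-20, 0.1% BSA. Compound added 5 min; RanGTP-RCC1 (0.6 uM Ran, 2 mM GTP, 0.2 uM RCC1) then triggers release, read at 45 min.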
Rango complex inh = qHTS Assay for Inhibitors of Rango (Ran-regulated importin-beta cargo) - Importin beta complex formation. Importin subunit beta-1 (Homo sapiens), Q14974. Rango CFP/YFP FRET sensor + importin beta, 45 min. Potency, µM (highest dose often 92.2 µM), inactives show top-dose inhibition of complex formation. 0.031% of 340,000 active; calls by dose curve;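 note: potency is the fitted concentration of half-maximal effect; 0% = DMSO wells and 100% = buffer wells lacking importin beta; nearly all actives have a fitted effect of over 15% in size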
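Inhibition scored from the CFP 486 nm/YFP 530 nm FRET ratio 45 min after adding 0.125 microM importin beta to 50 nM Rango biosensor preincubated 5 min with compound (room temperature, PBS with DTT, Tween-20, BSA). No-importin wells as positive control.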
PLK1 PBD block = qHTS for Inhibitors of PLK1-PDB (polo-like kinase 1 - polo-box domain): Primary Screen; Serine/threonine-protein kinase PLK1 (Homo sapiens), P53350; Plk1 PBD binding of FITC phosphopeptide, fluorescence polarization; Potency, µM, inactives show max response, negative = inhibition, hits mostly inhibitors; 2.8% of 360,000 active; note: potency is the fitted concentration of half-maximal effect; series mostly up to about 57 µM; % is set by controls: 0 for no effect and ±100 for the full control effect; nearly all actives have a fitted effect of over 65% in size
KAT2A inh = qHTS Assay for Inhibitors of GCN5L2; GCN5L2 HAT assay, ThioGlo1 CoA-SH fluorescence; AID 504327, 2011; Potency, µM (highest dose often 58.9 µM), without a hit: at the top dose activity change, negative = inhibition, actives largely listed as inhibitors; Histone acetyltransferase KAT2A (Homo sapiens), Q92830; 0.21% of 390,000 active; note: potency is the fitted concentration of half-maximal effect; % is set by controls: 0 for no effect and ±100 for the full control effect
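GCN5L2 (20 nM) in 50mM HEPES pH 7.5, 0.1mM EDTA, 0.01% Tween-20 preincubated 15 min with compounds at room temperature. Reaction started with H3(1-25) 75uM, acetyl-CoA 70uM, ThioGlo1 50uM; CoA-thiol fluorescence (Ex340/Em540) read at 0 and 20 min.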
Active calls of the source: *; ? = inconclusive; nt = not tested or not shown. Unless noted, calls come from the whole dose curve; as a rule, active = well fitted curve in the direction sought with a large enough effect; inconclusive = small, poorly fitted or top-dose-only effect, or another doubt; inactive = no such curve, though single readings can be large; an effect the other way counts as inactive or inconclusive.

Sequences of proteins named here, by UniProt entry; tags and fusion partners are left off.
Importin subunit beta-1 (Homo sapiens), Q14974, UniProt Q14974, whole entry, looked up: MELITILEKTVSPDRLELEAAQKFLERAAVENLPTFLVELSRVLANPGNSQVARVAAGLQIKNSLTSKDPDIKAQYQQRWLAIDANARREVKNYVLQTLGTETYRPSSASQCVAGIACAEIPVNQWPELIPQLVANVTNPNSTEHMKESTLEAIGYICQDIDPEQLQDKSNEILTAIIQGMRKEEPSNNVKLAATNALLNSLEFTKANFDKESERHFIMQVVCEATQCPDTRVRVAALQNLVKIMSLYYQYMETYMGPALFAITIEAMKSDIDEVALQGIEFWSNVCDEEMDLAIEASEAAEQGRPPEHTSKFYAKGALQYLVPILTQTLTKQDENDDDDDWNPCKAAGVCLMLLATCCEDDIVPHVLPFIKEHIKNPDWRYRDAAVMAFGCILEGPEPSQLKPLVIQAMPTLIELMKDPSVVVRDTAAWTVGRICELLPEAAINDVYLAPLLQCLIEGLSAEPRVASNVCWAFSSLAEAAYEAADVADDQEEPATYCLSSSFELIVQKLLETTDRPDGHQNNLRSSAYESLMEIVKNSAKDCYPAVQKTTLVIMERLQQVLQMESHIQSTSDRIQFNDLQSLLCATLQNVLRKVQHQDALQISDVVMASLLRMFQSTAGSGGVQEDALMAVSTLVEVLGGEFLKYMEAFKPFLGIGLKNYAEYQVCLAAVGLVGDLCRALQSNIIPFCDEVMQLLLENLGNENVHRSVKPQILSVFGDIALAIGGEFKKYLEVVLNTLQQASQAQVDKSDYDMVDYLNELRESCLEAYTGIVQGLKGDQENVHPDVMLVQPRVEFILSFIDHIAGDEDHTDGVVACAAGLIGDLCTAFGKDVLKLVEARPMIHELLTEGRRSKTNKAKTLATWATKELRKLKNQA
Serine/threonine-protein kinase PLK1 (Homo sapiens), P53350, UniProt P53350, whole entry, looked up: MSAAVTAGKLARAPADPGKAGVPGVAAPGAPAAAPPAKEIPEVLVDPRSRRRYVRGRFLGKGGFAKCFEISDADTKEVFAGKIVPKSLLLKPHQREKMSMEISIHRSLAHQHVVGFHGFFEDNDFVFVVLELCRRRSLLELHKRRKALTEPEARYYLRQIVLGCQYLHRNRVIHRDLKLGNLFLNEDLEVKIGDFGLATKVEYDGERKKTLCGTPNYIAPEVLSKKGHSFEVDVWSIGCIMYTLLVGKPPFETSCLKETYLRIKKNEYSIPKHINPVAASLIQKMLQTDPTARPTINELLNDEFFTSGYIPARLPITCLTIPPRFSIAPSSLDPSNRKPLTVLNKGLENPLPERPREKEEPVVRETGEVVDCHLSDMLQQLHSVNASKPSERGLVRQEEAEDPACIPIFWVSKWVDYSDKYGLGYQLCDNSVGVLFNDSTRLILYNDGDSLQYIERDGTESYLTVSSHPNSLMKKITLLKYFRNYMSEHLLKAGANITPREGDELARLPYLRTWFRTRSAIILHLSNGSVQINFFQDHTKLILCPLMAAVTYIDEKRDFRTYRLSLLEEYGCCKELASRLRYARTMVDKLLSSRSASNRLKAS
Histone acetyltransferase KAT2A (Homo sapiens), Q92830, UniProt Q92830, whole entry, looked up: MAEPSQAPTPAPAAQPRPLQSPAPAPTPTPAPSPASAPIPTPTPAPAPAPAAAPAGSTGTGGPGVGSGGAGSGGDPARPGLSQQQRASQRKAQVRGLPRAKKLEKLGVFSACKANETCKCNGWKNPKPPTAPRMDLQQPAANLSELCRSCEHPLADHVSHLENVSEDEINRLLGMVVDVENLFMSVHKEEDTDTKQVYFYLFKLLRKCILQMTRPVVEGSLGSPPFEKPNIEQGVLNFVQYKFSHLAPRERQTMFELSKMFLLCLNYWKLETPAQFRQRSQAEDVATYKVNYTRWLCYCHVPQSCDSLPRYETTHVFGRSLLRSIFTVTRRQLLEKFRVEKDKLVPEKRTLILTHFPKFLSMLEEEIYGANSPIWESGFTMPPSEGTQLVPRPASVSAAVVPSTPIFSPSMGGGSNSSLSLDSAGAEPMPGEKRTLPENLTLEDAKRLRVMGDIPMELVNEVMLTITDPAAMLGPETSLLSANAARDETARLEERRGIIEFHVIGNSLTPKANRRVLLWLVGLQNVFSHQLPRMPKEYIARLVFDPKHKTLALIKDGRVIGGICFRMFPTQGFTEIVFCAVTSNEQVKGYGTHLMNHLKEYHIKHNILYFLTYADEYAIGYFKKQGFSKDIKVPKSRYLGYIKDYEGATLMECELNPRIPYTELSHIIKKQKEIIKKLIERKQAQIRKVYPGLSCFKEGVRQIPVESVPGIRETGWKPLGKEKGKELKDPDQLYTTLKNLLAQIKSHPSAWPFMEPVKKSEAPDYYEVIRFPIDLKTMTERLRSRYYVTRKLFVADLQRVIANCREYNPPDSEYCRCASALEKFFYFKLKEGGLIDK

VDR inhibitor	smiles	PI5P4Ka inh	Rango dissoc inh	Rango complex inh	PLK1 PBD block	KAT2A inh
?	CC[C@]12c3[nH]c4cc(CCC(=O)N(C)C)ccc4c3CCN1C(=O)[C@@H](CC(=O)NCCCOC)C[C@@H]2C(=O)N1CCN(C(=O)C2CC2)CC1	?	-7%	-3%	21µM*	1%
2%	COc1cccc(CNC(=O)CN2N=C(c3ccc(C)cc3)CCC2=O)c1	nt	nt	nt	nt	0%
-19%	O=[N+]([O-])c1cccc(/C=N\N=C2c3ccccc3-c3ccccc32)c1O	-54*	6%	0%	?	26%
-16%	S=c1nc(-c2ccccc2Cl)[nH][nH]1	?	-2%	-3%	?	?
?	S=c1nc(-c2csc3c2CCCC3)[nH][nH]1	?	-3%	0%	27µM*	-10%
-14%	CC1(C)CC(=O)C(Sc2ccccc2)=C(O)C1	-2	2%	2%	12µM*	-3%
-18%	CC1(C)CC(=O)C(Sc2ccccc2C(=O)O)=C(O)C1	-16	-24%	2%	-18%	-2%
40µM*	COc1cc(/C=C2\N=C(C)OC2=O)cc(OC)c1OC	8	-15%	4%	-11%	-24%
20µM*	CCOC(=O)Oc1ccc(/C=C2\N=C(C)OC2=O)cc1	1	1%	0%	-27%	-9%
-24%	CCOC(=O)Nc1ccc2c(c1)Cc1cc([N+](=O)[O-])ccc1-2	-10	-10%	10%	5%	nt

Arranged by formula weight (smallest number first): 7 of the compounds above
VDR inhibitor	smiles	PI5P4Ka inh	Rango dissoc inh	Rango complex inh	PLK1 PBD block	KAT2A inh
-16%	S=c1nc(-c2ccccc2Cl)[nH][nH]1	?	-2%	-3%	?	?
-14%	CC1(C)CC(=O)C(Sc2ccccc2)=C(O)C1	-2	2%	2%	12µM*	-3%
20µM*	CCOC(=O)Oc1ccc(/C=C2\N=C(C)OC2=O)cc1	1	1%	0%	-27%	-9%
40µM*	COc1cc(/C=C2\N=C(C)OC2=O)cc(OC)c1OC	8	-15%	4%	-11%	-24%
-24%	CCOC(=O)Nc1ccc2c(c1)Cc1cc([N+](=O)[O-])ccc1-2	-10	-10%	10%	5%	nt
2%	COc1cccc(CNC(=O)CN2N=C(c3ccc(C)cc3)CCC2=O)c1	nt	nt	nt	nt	0%
?	CC[C@]12c3[nH]c4cc(CCC(=O)N(C)C)ccc4c3CCN1C(=O)[C@@H](CC(=O)NCCCOC)C[C@@H]2C(=O)N1CCN(C(=O)C2CC2)CC1	?	-7%	-3%	21µM*	1%

The listing continues.
VDR inhibitor	smiles	PI5P4Ka inh	Rango dissoc inh	Rango complex inh	PLK1 PBD block	KAT2A inh
8%	CC(O)CN(CC(C)O)c1ccc2c(c1)Cc1cc([N+](=O)[O-])ccc1-2 (stereo not drawn)	7	?	18µM*	28%	nt
-10%	COc1ccc(-c2cc3nc(C)c(CCC(=O)NC(C)c4ccccc4)c(C)n3n2)c(OC)c1 (stereo not drawn)	nt	nt	nt	nt	-3%
-20%	CCn1c(=O)c2ccccc2n2c(SCC(=O)NCc3cccs3)nnc12	nt	-2%	3%	4%	-2%
0%	C=CCn1c(=O)c2ccccc2n2c(SCC(=O)N(C)C)nnc12	-1	7%	8%	-6%	-1%
-26%	CCCn1c(=O)c2ccccc2n2c(SCC(=O)NCc3cccs3)nnc12	-8	-11%	8%	27µM*	-6%
-29%	C=CCn1c(=O)c2ccccc2n2c(SCC(=O)c3ccccc3)nnc12	-19	-9%	1%	24µM*	-14%
4%	CCOC(=O)c1ccccc1NC(=O)Cn1cc(C(=O)c2cccc(OC)c2)c(=O)c2ccc(C)nc21	nt	nt	nt	nt	-8%
-7%	COC(=O)CN1C(=O)C(C)(C)c2cc(S(=O)(=O)NCc3ccc(Cl)cc3)ccc21	nt	nt	nt	nt	-2%
-2%	Cc1ccccc1C(=O)Nc1ccc2nc(SCC(=O)N3CCc4ccccc43)sc2c1	nt	nt	nt	nt	-7%
-16%	COC(=O)c1cc2oc(C)cc2n1Cc1c(C)cc(C)cc1C	nt	nt	nt	nt	-6%
-16%	COc1ccc(NC(=O)c2ccc(COc3ccccc3OC)o2)cc1OC	-20	-20%	0%	30µM*	-4%
10%	COc1ccc(NC(=O)c2ccc(COc3ccccc3Br)o2)cc1OC	11	-4%	-5%	-3%	-3%
?	NC(=S)NN=Cc1nccc2ccccc12	-9	5%	2%	-15%	nt
?	Cc1cnc(C=NNC(N)=S)c2cccc(N)c12	-53*	0%	0%	24µM*	nt
3%	COCCCNC(=O)c1sc2nc3n(c(=O)c2c1C)CCC3	nt	nt	nt	nt	0%
16%	Cc1cc(C)n(C(C)CC(=O)Nc2ccc(C)c(N(C)C)c2)n1 (stereo not drawn)	nt	nt	nt	nt	-11%
15%	COc1cccc(/C=N/Nc2cc(N3CCOCC3)ncn2)c1O	-98*	-20%	1%	1%	-1%
3%	COc1cccc(NC(=O)CCN2CCN(CCO)CC2)c1	nt	nt	nt	nt	2%
-26%	O=C(Nc1ccccc1)Nc1ccc2nnsc2c1	-9	10%	1%	30µM*	4%
0%	O=C(Nc1ccccc1)Nc1ccc2snnc2c1	-1	-8%	-2%	-20%	-4%
-10%	O=C(Nc1ccccc1)Nc1nncs1	-14	-17%	1%	30µM*	-1%
-9%	Cc1ccc(NC(=O)Cn2c(=O)nc(-c3ccccc3F)c3cc(Cl)ccc32)c(Br)c1	nt	nt	nt	nt	1%
-16%	COc1ccc(OC)c(CCNC(=O)c2cc3c(=O)oc4ccc(C)cc4c3s2)c1	nt	nt	nt	nt	-7%
5%	COc1ccccc1CNC(=O)Cn1ncc2c(C)n(Cc3ccccc3Cl)c(C)c2c1=O	nt	nt	nt	nt	?
?	O=C1NC2(CCCCCC2)C(=O)N1Cc1cccc([N+](=O)[O-])c1	-23	21%	0%	27µM*	18%
6%	COc1cccc(CN2C(=O)NC3(CCCCCC3)C2=O)c1	0	-1%	4%	-2%	-6%
nt	O=C1c2ccccc2C(=O)N1C/C=C/CN1C(=O)c2ccccc2C1=O	nt	nt	nt	nt	-3%
nt	O=C1c2ccccc2C(=O)N1C1C=CC=CC=C1	-2	nt	nt	30µM*	nt
-13%	COC(=O)c1sc2ccccc2c1C(=O)OC	nt	-8%	-5%	-6%	-6%
20µM*	COC(=O)C1=C(C(=O)OC)C(c2ccccc2O)c2sc(=O)[nH]c2S1 (stereo not drawn)	-28	-8%	4%	4.2µM*	2%
3%	Cc1cc(NC(=O)CSCc2ccc([N+](=O)[O-])cc2)no1	2	2%	-2%	-16%	19%
-14%	CC(C)(C)SCCNC(=O)CSCc1ccc([N+](=O)[O-])cc1	-5	0%	2%	-3%	1.8µM*
-12%	CC(=O)Oc1ccc2c(c1)Oc1cc(OC(C)=O)ccc1C21OC(=O)c2ccccc21	-7	?	?	6.7µM*	-5%
-5%	O=c1oc(-c2ccc(C(F)(F)F)cc2)nn1Cc1cc(Cl)ccc1O	nt	nt	nt	nt	7%
?	O=C(O)CN1C(=O)/C(=C\c2cc(Br)ccc2OCc2ccccc2F)SC1=S	-9	9%	4%	19µM*	?
-22%	O/N=C/c1cc(Br)ccc1OCc1ccccc1F	-2	-7%	1%	-18%	nt
?	O=C(O)CN1C(=O)/C(=C\c2cc(Br)ccc2OCc2ccccc2Cl)SC1=S	0	-10%	-1%	17µM*	?
-10%	COc1cccc(/C=C2/SC(=S)N(CCC(=O)N3CCOCC3)C2=O)c1	-7	-27%	-6%	30µM*	-2%
